{"sequences": {"note": "Chains of the proteins cited; added tags and fusions are not shown. Residues count along the entry.", "UniProt C7C422, 29-270 limits assumed": "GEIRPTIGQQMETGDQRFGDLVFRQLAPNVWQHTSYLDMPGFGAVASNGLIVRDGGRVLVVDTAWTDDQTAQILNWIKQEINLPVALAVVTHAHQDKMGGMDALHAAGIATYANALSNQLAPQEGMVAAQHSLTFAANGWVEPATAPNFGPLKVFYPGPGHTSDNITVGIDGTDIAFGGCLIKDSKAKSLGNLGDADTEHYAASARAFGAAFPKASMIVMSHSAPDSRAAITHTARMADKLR"}, "source": "paper PMC8878330", "about": "(Molecules, 2022)", "target": "T1, New Delhi metallo-β-lactamase-1 (NDM-1) (Klebsiella pneumoniae, UniProt C7C422)", "T1 construct": "gene blaNDM-1", "test": "biochemical", "data": [{"compound": "CN(Cc1cnc2nc(N)nc(N)c2n1)c1ccc(C(=O)N[C@@H](CCC(=O)O)C(=O)O)cc1", "note": "[methotrexate]", "values": [{"measurement": "IC50", "value": 29.7, "unit": "µM"}]}]}
